Earlier results in article PMC6804162, “Inhibitory Effects of Novel 7-Substituted 6-iodo-3-O-Flavonol Glycosides against Cholinesterases and β-secretase Activities, and Evaluation for Potential Antioxidant Properties” (Molecules, 2019).

Protein sequences, listed by entry. Tags and fused reporters are not part of them. Residues count along the entry.
UniProt P22303, 32-614 limits assumed: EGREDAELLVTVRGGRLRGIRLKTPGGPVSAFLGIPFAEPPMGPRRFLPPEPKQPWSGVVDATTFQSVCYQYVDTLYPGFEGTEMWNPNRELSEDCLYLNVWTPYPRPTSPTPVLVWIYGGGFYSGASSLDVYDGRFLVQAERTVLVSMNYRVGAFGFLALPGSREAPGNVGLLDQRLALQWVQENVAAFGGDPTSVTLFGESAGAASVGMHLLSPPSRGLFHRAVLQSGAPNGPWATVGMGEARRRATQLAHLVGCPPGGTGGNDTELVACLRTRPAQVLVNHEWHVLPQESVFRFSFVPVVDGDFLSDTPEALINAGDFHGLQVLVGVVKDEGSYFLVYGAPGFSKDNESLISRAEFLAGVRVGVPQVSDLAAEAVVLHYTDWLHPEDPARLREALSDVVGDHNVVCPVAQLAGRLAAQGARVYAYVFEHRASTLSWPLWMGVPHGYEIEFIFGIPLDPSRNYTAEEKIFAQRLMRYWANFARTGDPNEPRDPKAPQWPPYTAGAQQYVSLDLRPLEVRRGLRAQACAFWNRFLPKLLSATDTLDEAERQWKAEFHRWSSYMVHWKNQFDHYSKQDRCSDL

Target: acetylcholinesterase (AChE) (Homo sapiens, UniProt P22303)
Settings: cited from earlier work

SMILES	IC50
O=c1c(O)c(-c2ccc(Cl)cc2)oc2cc(F)c(I)cc12	3.35 µM
O=c1c(O)c(-c2ccc(Cl)cc2)oc2cc(Br)c(I)cc12	29.4 µM
